Measurements from US20200368371A1, “DYE-PROTEIN COMPLEX FOR NIR II AND PHOTOACOUSTIC IMAGING” (The Board of Trustees of the Leland Stanford Junior …, priority 2019, published 2020).
Entries after “also recorded” stand apart in the source; their conditions may differ.

How the values were obtained:
U87 glioma tumor = assay: NIR-II imaging of tumor blood supply network; assay type: in vivo, mice
From the text: To visualize the blood supply network in a tumor, NIR-II images were captured after injection of heated IR-820-HSA into the tail vein of tumor-bearing nude mice. […] The original main blood supply vessels are shown in FIG. 5D and a week later in FIG. 5E, the results being verified after dissection, as shown in FIG. 5F.
The resolutions of the tumor blood vessels under different wavelength filters of 1000LP and 1200LP were compared using SBR and Gaussian FWHM. SBR and FWHM increased from 1.4 to 1.8 and from 656 μm to 441 μm, respectively (FIG. 5C). A tumor blood supply network with gradual change was clearly observed in NIR-II images, illustrating that fluorescence-visible monitoring is possible for tumor blood vessels treatment.
U87MG human glioma, 143B human bone osteosarcoma, and mouse embryonic fibroblast NIH/3T3 cell lines were obtained from the American Type Culture Collection and cultured in high-glucose Dulbecco's modified Eagle medium (DMEM) containing 10% FBS, 100 IU/mL penicillin, and 100 μg/mL streptomycin at 37° C. with 5% CO2 atmosphere. Eight-week-old female C57BL/6 mice and NU/NU mice were used. About 2×10^6 U87MG or 143B cells in DMEM media (no FBS) were hypodermically injected into the left shoulder of the nude mice.
(§1) Before imaging, all mice were anesthetized in a rodent anesthesia machine with 2 L/min O^2 gas mixed with 3% Soflurane. C57BL/6 mice were used for the vascular and lymphatic system NIR-II imaging. […] A gentle massage was performed at the injection site to increase the speed of diffusion into the lymphatic system. […] All groups within the study contained n=3 mice.
(§2) All NIR-II images were collected on a two-dimensional InGaAs array NIR-II system (Princeton Instruments). The excitation was provided by an 808 nm diode laser through an optical fiber and collimator. Fluorescence emission was collected with 1000 nm or more than 1000 nm long-pass filters (Thorlabs). A lens set was used to obtain tunable magnifications ranging from 1× (whole body) to 2.5× (high magnification) by changing the relative position of two NIR achromats (75 mm and 200 mm, Thorlabs). Image J software were used for analyzing the images.

143B osteosarcoma tumor [1] = assay: Ex vivo NIR-II fluorescence biodistribution in dissected tumor and organs; design: species or system mice; details: 8 h after injection
Method: (§3) Ex vivo NIR II fluorescence imaging of the dissected tumor and organs obtained from tumor-bearing mice 8 h after injection were used to further assess the biodistribution of probe (FIG. 6D). […] 7 days after imaging, the mice were killed and dissected. […] After coating with HSA, IR-820 successfully imaged the tumor with vasculature leakiness combined with poorly formed lymphatic drainage.

143B osteosarcoma tumor [2] = assay: NIR-II and photoacoustic imaging of tumor; assay type: in vivo, mice; details: imaged 1 h to 48 h, 808 nm excitation
Method: as §1, §2

C57BL/6 mice [3] = assay: In vivo NIR-II imaging of vascular system
Method: Moreover, using the Gaussian-fitted full width at half maximum (FWHM) of the cross-sectional intensity profiles of the blood vessels, FWHM of the corresponding vessel in the NIR-II window was obtained.
as §1, §2
(§4) The fluorescence measurement was performed to quantify NIR-II fluorescence signal intensity through the Image J software (National Institutes of Health, Bethesda, Md.). The line graphs and Gaussian-fitted FWHM were analysis by origin 8.5 (OriginLab Corporation, Northampton, Mass.).

[4] = Stability of fluorescence intensity in PBS, FBS and DI water; assay type: physicochemical; details: up to 24 hours
NIH3T3 cells = assay: MTT cytotoxicity assay; assay type: cell-based, mouse; details: NIH3T3, concentrations up to 200 μM, 48 h
Method: NIH3T3 cells (5×10^3 cells per well) were seeded in 96-well plates in DMEM with 10% FBS. […] After that, MTT (10 μl, 0.5 mg/ml) solution was added to each well and incubated for 4 h at 37° C. The residues were lysed with 200 μl of dimethyl sulfoxide after removing the supernatant. Then a standard MTT method was performed for measuring the cell viability with a Bio-Rad microplate reader. The relative cell viability (%) was calculated by (Asample/Ablank)×100%. All samples were used in triplicate, and the related experiments were all replicated three times.

143B osteosarcoma tumor [5] = assay: NIR-II image-guided tumor resection; assay type: in vivo, mice; details: after tumor completely removed
From the text: In NIR-II imaging (FIG. 7), tumor could be clearly recognized on the left shoulder where tumor cells had been injected before surgery. After incision of skin, the tumor was exposed with clear delineation with a tumor-to-background ratio of 15 between the tumor and the adjacent tissue.

[6] = H&E staining of major organs and tumor after injection; assay type: in vivo, mice; details: 7 days after injection/imaging, heart, lung, liver, spleen, kidney
Method: as §3
The obtained major organs were fixed with 4% paraformaldehyde overnight. Afterwards, these organs were embedded in optimal cutting temperature (OCT) compound (TISSUE-TEK®, Sakura Finetek, USA), sectioned into 8 μm slices in the cryostat at −20° C. with a microtome and transferred onto microscope slides for hematoxylin and eosin (H&E) using SHANDON® rapid Chrome kit (Thermo Scientific, USA). The stained sections were imaged under NanoZoomer 2.0RS.

C57BL/6 mice [7] = assay: In vivo NIR-II imaging of lymphatic system
Method: For the right low limb blood vessel in FIG. 3B, the adjacent artery and vein were distinguished in the middle part of the limb, with the SBR of 2.05, 2.25 and FWHM of 406 μm, 633 μm (FIG. 3D), respectively. […] Small blood vessels were visible in the abdomen (FIG. 3C). […] A gentle massage was performed on the injection site for faster diffusion into the lymphatic system. The popliteal sciatic lymph nodes connected with lymphatic vessels were identified after probe injection into each side of the footpad. However, the fluorescence intensity on the right side was more evident (FIG. 4A). The right inguinal lymph node and connected lymphatic vessels were sequentially observed after the probe was subcutaneously injected into the middle of the tail.
as §1, §2, §4

[8] = Photostability under continuous illumination at 808 nm; assay type: physicochemical; details: DI water, 10 μM
From the text: The enhancement in FBS might be attributable to the increased albumin from FBS. Additionally, the decrease in fluorescence intensity in PBS might be due to an increase in ionic strength in PBS, which partly affects the binding stability between IR-820 and HSA (Jones et al., (2012) Thermochim. Acta 545: 112-115).
After normalized by dividing the fluorescence intensity of each time point by the fluorescence intensity at t=0, the photobleaching curves were made.

[9] = Absorbance spectra in deionized water; assay type: physicochemical; details: DI water
From the text: To investigate the binding site of IR-820 with HSA molecular modeling using SybyI-X software was used. […] Many commonly used drugs with acidic or electronegative features bind to HSA, usually at one of two primary sites, located in subdomains IIA and IIIA, respectively (Hoogenboezem & Duvall (2018) Adv. Drug Deliv. Rev. 130: 73-89; Ghuman et al., (2005) J. Mol. Biol. 353: 38-52). […] IIA also contains a large hydrophobic cavity with the ability to bind many kinds of drugs, which is in consist with the result shown in FIG. 10. […] Upon binding to HSA, the free single-button rotation of IR-820 is limited by HSA, resulting in enhanced fluorescence by a mechanism similar to aggregation-induced emission, in which the free movement of the fluorophore is reduced to produce brighter fluorescence and reduced fluorescence self-quenching (Li & Li (2017) Adv. Sci. (Weinh) 4: 1600484; Anger et al., (2006) Phys. Rev. Lett. 96: 113002). […]
Absorbance spectra of IR-820 and complexes were taken on an ultraviolet-visible-NIR Cary 60 spectrometer (Agilent Technologies) with background correction. The NIR-II fluorescence emission spectrum was captured on a home-built spectroscopy set-up by exciting IR-820 and complexes with an 808 nm laser diode with a power output of 100 mW. […]

[10] = right low limb, middle part, heated IR-820-HSA i.v.
[11] = right low limb, middle part, heated IR-820-HSA i.v., 30 min after injection
[12] = lateral position, tail injection
[13] = prone position, subcutaneous footpad injection
[14] = supine position, tail injection

heated IR-820-HSA: IR-820-HSA complex solution put in water bath for 10 min at 60° C.
FWHM of tumor blood vessels (U87 glioma tumor; 1000LP filter): 656 μm | SBR of tumor blood vessels (U87 glioma tumor; 1000LP filter): 1.4 | FWHM of tumor blood vessels (U87 glioma tumor; 1200LP filter): 441 μm | SBR of tumor blood vessels (U87 glioma tumor; 1200LP filter): 1.8

IR-820-HSA: dye-protein complex of IR-820 and human serum albumin, mixed in DI water at molar ratio 1:2
ex vivo NIR II fluorescence in liver (143B osteosarcoma tumor [1]): accumulation | ex vivo NIR II fluorescence in tumor (143B osteosarcoma tumor [1]): high NIR II fluorescence intensity | time of maximum NIR II fluorescence signal in the tumor after injection (143B osteosarcoma tumor [2]): about 18 h | FWHM of blood vessels (C57BL/6 mice [3]; abdomen): 246 μm | highest SBR of blood vessels (C57BL/6 mice [3]; abdomen): 2.4 | circulation retention in vivo (C57BL/6 mice [3]; clear blood vessel images still available for 30 mins): good circulation retention time | FWHM of artery (C57BL/6 mice [3]; [10]): 406 μm | FWHM of vein (C57BL/6 mice [3]; [10]): 633 μm | SBR of artery (C57BL/6 mice [3]; [11]): 2.05 | SBR of vein (C57BL/6 mice [3]; [11]): 2.25 | SNR of blood vessel (C57BL/6 mice [3]; right low limb, proximal end of the blood vessel): 2.93 | increase of fluorescence intensity ([4]; in DI water): ~20% | increase of fluorescence intensity ([4]; in FBS): ~20% | cytotoxicity (MTT) (NIH3T3 cells): No apparent cytotoxicity | residue in NIR-II imaging after resection (143B osteosarcoma tumor [5]): no residue was found | H&E stained major organ and tumor slices [6]: no abnormality was observed; also recorded: No abnormalities were observed | FWHM of lymphatic vessels (C57BL/6 mice [7]; [12]): 472 μm | SBR of lymphatic vessels (C57BL/6 mice [7]; [12]): 1.94 | FWHM of lymphatic vessels (C57BL/6 mice [7]; [13]): 551 μm | SBR of lymphatic vessels (C57BL/6 mice [7]; [13]): 4.77 | FWHM of lymphatic vessels (C57BL/6 mice [7]; [14]): 420 μm | SBR of lymphatic vessels (C57BL/6 mice [7]; [14]): 2.33 | photostability compared to free IR-820 [8]: greater photostability | absorbance strong peak [9]: 835 nm | absorbance weak shoulder [9]: 765 nm
